## Binding of CDR-mutated scFvs to a peptide of the spike HR2 region

All variants were tested on one target, the spike HR2 peptide PDVDLGDISGINAS (SARS-CoV-2).

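Phage display of a naive human antibody library on the peptide gave the parent. In library AAYL50, one, two or three CDR residues were substituted; doubles and triples were drawn at random. The assay is AlphaSeq: two haploid yeast populations carry antibody and antigen on their surface. The frequency of each diploid, read from paired DNA barcodes, reflects how well the two displayed proteins bind. The ratio of observed to expected reads was calibrated, replicate by replicate, on BCL2-family standards whose Kd was known from biolayer interferometry. Each pool was mated in three replicate cultures.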

Parent: Ab-14, a human scFv built as VH, a 15-residue (Gly4Ser)3 linker, VL. Only the CDRs of the light chain vary.
VH: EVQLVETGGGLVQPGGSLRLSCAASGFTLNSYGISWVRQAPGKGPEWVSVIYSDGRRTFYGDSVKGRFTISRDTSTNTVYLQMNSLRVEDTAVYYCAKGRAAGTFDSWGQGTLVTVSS
VL: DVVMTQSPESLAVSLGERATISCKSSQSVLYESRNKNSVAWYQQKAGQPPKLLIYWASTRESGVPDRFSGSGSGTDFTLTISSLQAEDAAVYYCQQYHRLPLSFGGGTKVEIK

Substitutions are numbered in sequence along the VL above, starting at 1 (not Kabat). Scale: log10 of Kd in nM, estimated from mating counts; low values are strong binders. An entry "n.d." has no value in the source: the pair was not observed among the diploids in that replicate. This suggests poor binding but is not conclusive. Three control strains display no target. For library AAYL50, 18% of the pairings with them gave a signal, with a median of 4.19 and one signal in twenty below 2.99, so weak values seen in few replicates may be background. Also given: how often the same scFv was detected with the empty control strains, with their mean in brackets.

changes	log10 Kd (nM) by replicate	signal with controls
S28F+R34C+R99A	3.06 / 2.79 / 3.36	3/9 (4.29)
K36G+A57S+R99L	4.29 / 1.99 / 2.59	1/9 (2.68)
Q27Y+V29P+L102F	0.68 / 0.88 / 0.56	0/9
K24E+Q27V+L30K	n.d. / n.d. / 4.44	0/9
S33A+T59N+L102R	n.d. / n.d. / n.d.	1/9 (3.50)
V39F+W56A+L102T	n.d. / 3.71 / 4.53	2/9 (4.54)
R34Q+A57Q+P101C	3.45 / n.d. / n.d.	1/9 (4.41)
Q27P+Q95N+P101N	n.d. / n.d. / n.d.	2/9 (4.30)
S26R+A40N+H98S	n.d. / n.d. / n.d.	1/9 (3.25)
V29W+L30T+R34G	0.09 / 0.41 / 0.30	1/9 (3.39)
K36M+A57Q+Q95K	2.01 / 2.36 / 2.26	0/9
Q27N+A57H+R99D	n.d. / 5.04 / n.d.	2/9 (3.20)
S25N+K36F+Q96A	3.48 / 2.29 / 2.92	1/9 (4.22)
K24L+W56P+Y97I	n.d. / n.d. / n.d.	6/9 (3.74)
K36N+A40M+L102T	4.50 / 3.48 / 5.51	3/9 (4.37)
S26G+V29G+L30M	0.56 / 0.65 / 0.78	1/9 (4.77)
S38W+A40N+P101D	5.15 / 4.86 / n.d.	0/9
S28G+S62F	1.08 / 1.47 / 1.40	3/9 (4.16)
S28L+N37S+R99T	1.41 / 2.05 / 1.83	3/9 (3.36)
S28K+W56R+Y97D	n.d. / n.d. / n.d.	0/9
K24G+S26F+Q27T	2.83 / 2.99 / 3.27	6/9 (4.90)
K36W+P101D	0.73 / 0.91 / 0.87	1/9 (5.54)
S28Q+R34W+Q96K	1.14 / 1.46 / 1.41	1/9 (3.22)
E32K+H98K+L102T	2.07 / 2.96 / 2.18	1/9 (3.91)
Y31F+K36Q+T59M	1.05 / 0.83 / 0.95	0/9
V39L+T59P+Q96W	n.d. / 3.63 / n.d.	0/9
V39F+W56T	n.d. / n.d. / n.d.	2/9 (2.89)
N35H+N37P+T59A	n.d. / n.d. / 3.87	2/9 (3.63)
Y31W+Q95M+L100P	5.66 / 5.48 / n.d.	2/9 (4.88)
K36G+R60H+L100C	n.d. / n.d. / n.d.	0/9
S28D+N37D+T59K	n.d. / n.d. / 3.42	3/9 (3.86)
V29W+S38V+V39L	n.d. / n.d. / n.d.	0/9
S58T+Y97N+H98D	n.d. / n.d. / n.d.	0/9
L30S+K36P+A40S	3.72 / 3.53 / 3.90	1/9 (2.71)
K24A+Y31L+H98P	2.29 / 2.28 / 2.30	5/9 (4.00)
R34N	0.04 / 0.39 / 0.11	0/9
S25K+S38A+Q95M	4.60 / n.d. / 4.95	1/9 (4.53)
S26D+V39N+E61F	n.d. / n.d. / n.d.	4/9 (4.57)
V29R+A40C+R60Y	n.d. / n.d. / 5.09	4/9 (4.15)
A40L+R60Y+L102H	6.22 / n.d. / n.d.	2/9 (4.40)
S33L+Y97A	n.d. / 4.01 / n.d.	2/9 (3.61)
Q27W+V29W+H98E	1.07 / 1.05 / 1.12	0/9
R34M+N37F+T59M	1.07 / 1.14 / 1.23	2/9 (4.57)
Y31H+S58W	1.48 / 1.72 / 2.39	0/9
V29I+N37Y+L102M	1.64 / 1.48 / 1.73	2/9 (4.88)
V39P+W56Y+A57T	n.d. / n.d. / n.d.	1/9 (3.42)
N37M+H98C+P101Y	3.08 / 2.87 / 3.58	4/9 (5.54)
S28R+N35P+P101N	3.95 / 3.52 / n.d.	1/9 (4.44)
A57I+S58R+E61Y	5.89 / 3.65 / n.d.	4/9 (3.79)
K24M+S58F+T59D	n.d. / n.d. / n.d.	1/9 (4.29)
V29Q+K36S+R99S	0.73 / 0.75 / 0.89	1/9 (3.91)

From the list, the first 4 with no signal in any replicate:

changes	log10 Kd (nM) by replicate	signal with controls
S33A+T59N+L102R	n.d. / n.d. / n.d.	1/9 (3.50)
Q27P+Q95N+P101N	n.d. / n.d. / n.d.	2/9 (4.30)
S26R+A40N+H98S	n.d. / n.d. / n.d.	1/9 (3.25)
K24L+W56P+Y97I	n.d. / n.d. / n.d.	6/9 (3.74)

Parent in this assay: reference entry 0.65, copy in this library 1.68.

Values reported by Engelhart et al. 2022, doi:10.1038/s41597-022-01779-4 (FLAb copy).